# Measurements reported in publication PMC10608500 (Marine Drugs, 2023).
# Test system: nitric oxide (NO) secretion in LPS-stimulated RAW264.7 cells
# Assay: NO secretion (Griess assay) in LPS-stimulated RAW264.7 cells
# Details: 2 h pre-treatment then LPS 500 ng/mL for 22 h, OD 550 nm, mean of duplicate
substance,measurement,setting,value
Xinghamide A,NO secretion,100 μM compound,12.6 µM
same,NO secretion,200 μM compound,2.5 µM
